Molecules are shown by their SMILES.

Chains of the proteins cited; added tags and fusions are not shown.
UniProt P81908, whole entry: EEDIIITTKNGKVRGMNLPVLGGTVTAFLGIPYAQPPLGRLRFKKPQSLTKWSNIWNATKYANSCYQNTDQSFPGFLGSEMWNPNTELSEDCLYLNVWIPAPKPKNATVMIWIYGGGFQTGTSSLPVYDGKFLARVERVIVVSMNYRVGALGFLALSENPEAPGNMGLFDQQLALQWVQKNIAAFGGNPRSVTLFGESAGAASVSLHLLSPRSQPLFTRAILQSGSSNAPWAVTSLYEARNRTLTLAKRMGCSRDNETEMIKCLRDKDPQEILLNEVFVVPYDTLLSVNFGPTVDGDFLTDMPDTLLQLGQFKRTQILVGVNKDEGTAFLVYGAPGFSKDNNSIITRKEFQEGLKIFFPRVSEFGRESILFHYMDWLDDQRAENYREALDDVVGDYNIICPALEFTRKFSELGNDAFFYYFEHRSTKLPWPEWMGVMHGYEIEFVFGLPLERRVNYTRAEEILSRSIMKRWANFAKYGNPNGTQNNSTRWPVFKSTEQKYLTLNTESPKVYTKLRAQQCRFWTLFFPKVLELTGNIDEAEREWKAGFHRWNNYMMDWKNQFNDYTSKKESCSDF

In this assay the target is Cholinesterase (Equus caballus) (UniProt P81908). The assay is described as follows: Inhibition of horse serum BChE at 12.5 ug using butyrylthiocholine chloride as substrate preincubated for 15 mins followed by substrate addition measured every 5 mins for 15 mins by spectrophotometric method relative to control. In outline: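 Ellman colorimetric assay. Compound in methanol (10 µl) was mixed with 150 µl 100 mM sodium phosphate pH 8.0 and BChE (6.85 x10-3 U) and held 15 min at 25 °C. DTNB (0.5 mM) was added, then butyrylthiocholine chloride (0.2 mM) to start the reaction. A412 read every 5 min for 15 min, in triplicate. Percent inhibition = (E−S)/E×100 against a methanol blank.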

The compound `COc1ccc2c3c1O[C@H]1C[C@@H](O)C=C[C@@]31CCN(C)C2` gave an inhibition of 85.7%.

As usually defined, the inhibition is the share of the control response that was lost under treatment. Read a low inhibition as a weak effect.
